Data published in patent US20120190579A1, “Functionalisation of Solid Substrates” (priority 2009, published 2012).

Assay: Glutathione-mediated cleavage of protein adduct at physiologically relevant glutathione concentration (LC-MS)
Type: physicochemical
Conditions: glutathione 5 mM, 0° C., 4 h, pH 8.0, LC-MS

Substance: GrB2-SH2 Domain L111C/Dibromomaleimide/Glutathione Adduct
- cleavage of adduct to GrB2-SH2 domain L111C: GrB2-SH2 domain L111C was the only protein species present; also recorded: quantitative

Entries after “also recorded” stand apart in the source; their conditions may differ.
